Assay results reported in patent publication US20200181210A1, “MODIFIED CYCLIC PEPTIDES AND THERAPEUTIC USE THEREOF” (THE BROAD INSTITUTE, INC., priority 2017, published 2020).

Test system: trypsin
Experiment: trypsin protease digestion resistance of cyclotides (SDS-PAGE)
Details: trypsin exposure up to 18 hrs (FIG. 28)

- resistance towards trypsin: degraded
Compound: CSCC[C@H](NC(=O)[C@H](CC(C)C)NC(=O)[C@H](Cc1c[nH]c2ccccc12)NC(=O)[C@H](CCC(N)=O)NC(=O)[C@@H](NC(=O)[C@H](Cc1ccccc1)NC(=O)[C@H](CC(=O)O)NC(=O)[C@H](CCC(N)=O)NC(=O)[C@H](C)NC(=O)[C@H](CCCN=C(N)N)NC(=O)[C@H](CCCN=C(N)N)NC(=O)[C@H](CO)NC(=O)[C@H](CC(=O)O)NC(=O)[C@H](CC(C)C)NC(=O)[C@H](Cc1ccc(O)cc1)NC(=O)[C@H](CCCCN)NC(=O)[C@H](CO)NC(=O)[C@H](Cc1ccc(O)cc1)NC(=O)[C@H](CC(=O)O)NC(=O)[C@H](CO)NC(=O)[C@@H](NC(=O)[C@H](Cc1ccccc1)NC(=O)[C@@H](NC(=O)CNC(=O)[C@H](CCC(N)=O)NC(=O)[C@H](CO)NC(=O)[C@@H](N)Cc1c[nH]cn1)[C@@H](C)O)[C@@H](C)O)C(C)C)C(=O)N[C@@H](CC(N)=O)C(=O)N[C@H](C(=O)O)[C@@H](C)O [linear glucagon peptide, Glucagon]
